The target in experiment [1] is recombinant human enzyme TTBK1 (1-1321) (Homo sapiens (Human), UniProt Q5TCY1). Briefly: Enzymatic inhibition of TTBK1 (33P-ATP radiometric kinase assay). The class given is biochemical. To be noted: recombinant human TTBK1 (1-1321), 0.005 mM ATP, 30 minutes at room temperature.
The target in experiment [2] is recombinant human enzyme TTBK2(1-450) (Homo sapiens (Human), UniProt Q6IQ55). Briefly: Enzymatic inhibition of TTBK2 (33P-ATP radiometric kinase assay). The class given is biochemical. To be noted: recombinant human TTBK2(1-450), 0.005 mM ATP, 30 minutes at room temperature.

Protein sequences, listed by entry. Tags and fused reporters are not part of them. Lines headed by an entry give the natural chain unless they say otherwise; changes in a name come on top. Residues count along the entry.
UniProt Q5TCY1: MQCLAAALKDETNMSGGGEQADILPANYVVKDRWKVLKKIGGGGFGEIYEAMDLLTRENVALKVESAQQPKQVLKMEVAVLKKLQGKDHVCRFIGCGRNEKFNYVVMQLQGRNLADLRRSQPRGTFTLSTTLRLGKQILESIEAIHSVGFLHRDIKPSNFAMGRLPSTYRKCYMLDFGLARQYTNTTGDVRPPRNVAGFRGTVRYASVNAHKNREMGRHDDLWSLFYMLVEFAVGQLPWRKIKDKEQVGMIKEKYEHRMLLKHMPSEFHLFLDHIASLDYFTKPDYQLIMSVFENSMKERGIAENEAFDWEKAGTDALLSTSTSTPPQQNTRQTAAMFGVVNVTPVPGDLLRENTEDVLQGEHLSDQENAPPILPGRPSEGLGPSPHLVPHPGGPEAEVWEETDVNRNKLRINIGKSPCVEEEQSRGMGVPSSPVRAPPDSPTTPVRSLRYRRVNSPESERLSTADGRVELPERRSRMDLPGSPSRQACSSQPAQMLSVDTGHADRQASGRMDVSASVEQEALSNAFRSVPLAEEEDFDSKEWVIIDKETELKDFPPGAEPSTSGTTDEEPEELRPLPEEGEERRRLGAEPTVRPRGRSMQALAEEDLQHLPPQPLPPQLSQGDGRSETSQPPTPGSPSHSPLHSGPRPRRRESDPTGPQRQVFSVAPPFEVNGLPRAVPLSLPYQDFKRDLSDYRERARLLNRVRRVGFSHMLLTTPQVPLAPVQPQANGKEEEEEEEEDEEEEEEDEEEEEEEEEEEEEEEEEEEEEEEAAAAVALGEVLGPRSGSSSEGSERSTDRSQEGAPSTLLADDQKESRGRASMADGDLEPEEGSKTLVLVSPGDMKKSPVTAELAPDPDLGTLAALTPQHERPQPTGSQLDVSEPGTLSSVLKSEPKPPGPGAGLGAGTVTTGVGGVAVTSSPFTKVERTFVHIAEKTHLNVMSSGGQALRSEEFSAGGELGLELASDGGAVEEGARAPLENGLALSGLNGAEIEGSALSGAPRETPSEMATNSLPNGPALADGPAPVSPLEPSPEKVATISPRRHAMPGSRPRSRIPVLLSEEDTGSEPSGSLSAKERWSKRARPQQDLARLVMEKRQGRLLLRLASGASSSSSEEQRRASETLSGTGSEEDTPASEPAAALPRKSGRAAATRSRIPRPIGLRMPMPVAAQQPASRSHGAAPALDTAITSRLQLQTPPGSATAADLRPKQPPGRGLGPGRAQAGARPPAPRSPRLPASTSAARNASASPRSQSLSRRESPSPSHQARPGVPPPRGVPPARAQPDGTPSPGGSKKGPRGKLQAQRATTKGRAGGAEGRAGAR
UniProt Q6IQ55, 1-450: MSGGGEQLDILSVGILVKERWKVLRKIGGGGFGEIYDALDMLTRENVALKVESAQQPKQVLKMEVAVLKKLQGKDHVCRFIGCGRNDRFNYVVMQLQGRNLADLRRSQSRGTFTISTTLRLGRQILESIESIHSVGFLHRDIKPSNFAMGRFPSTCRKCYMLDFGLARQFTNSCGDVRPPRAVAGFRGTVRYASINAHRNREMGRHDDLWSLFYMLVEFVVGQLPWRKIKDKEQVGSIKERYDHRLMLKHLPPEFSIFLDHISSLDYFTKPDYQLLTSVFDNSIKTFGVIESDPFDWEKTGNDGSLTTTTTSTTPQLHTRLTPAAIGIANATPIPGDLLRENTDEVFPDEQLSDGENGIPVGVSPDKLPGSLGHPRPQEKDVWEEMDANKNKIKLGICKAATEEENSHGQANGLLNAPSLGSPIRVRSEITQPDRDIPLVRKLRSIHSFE

Each structure is given as a SMILES string.

Regarding `c1ccc(Oc2ccc(Nc3ncnc4[nH]ccc34)cc2)cc1` [Compound 1, N-(4-phenoxyphenyl)-7H-pyrrolo[2,3-d]pyrimidin-4-amine], the values for the IC50 in experiment [1] and in experiment [2] were 0.39 ± 0.02 µM and 0.85 ± 0.31 µM, respectively. The like results for `N#Cc1ccc(Oc2ccc(Nc3ncnc4[nH]ccc34)cc2)cc1` [Compound 4, N-[4-(4-cyanophenoxy)phenyl]-7H-pyrrolo[2,3-d]pyrimidin-4-amine] were, in that order, 0.44 ± 0.31 µM and 2.14 ± 1.2 µM.

With `COc1ccc(Oc2ccc(Nc3ncnc4[nH]ccc34)cc2)cc1` [Compound 5, N-[4-(4-methoxyphenoxy)phenyl]-7H-pyrrolo[2,3-d]pyrimidin-4-amine], the IC50 (in general, the point on the concentration scale where inhibition reaches its midpoint) in experiment [1] amounted to 0.54 ± 0.53 µM; in experiment [2] it was 0.97 ± 0.5 µM. Regarding `FC(F)(F)c1ccc(Oc2ccc(Nc3ncnc4[nH]ccc34)cc2)cc1` [Compound 6, N-[4-(4-trifluoromethylphenoxy)phenyl]-7H-pyrrolo[2,3-d]pyrimidin-4-amine], in experiment [1], the IC50 turned out to be 5.03 ± 2.9 µM. On to `Brc1ccc(Oc2ccc(Nc3ncnc4[nH]ccc34)cc2)cc1` [Compound 7, N-[4-(4-bromophenoxy)phenyl]-7H-pyrrolo[2,3-d]pyrimidin-4-amine], for which the values for the IC50 in experiment [1] and in experiment [2] were 0.75 ± 0.03 µM and 1.21 ± 0.06 µM, respectively.

Regarding `O=[N+]([O-])c1ccc(Oc2ccc(Nc3ncnc4[nH]ccc34)cc2)cc1` [Compound 8, N-[4-(4-nitrophenoxy)phenyl]-7H-pyrrolo[2,3-d]pyrimidin-4-amine], the IC50 in experiment [1] stood at 0.42 ± 0.11 µM; in experiment [2], 1.24 ± 0.3 µM. The like results for `Nc1ccc(Oc2ccc(Nc3ncnc4[nH]ccc34)cc2)cc1` [Compound 9, N-[4-(4-aminophenoxy)phenyl]-7H-pyrrolo[2,3-d]pyrimidin-4-amine] were, in that order, 0.52 ± 0.08 µM and 4.9 ± 1.21 µM. Consider `Cc1ccc(Oc2ccc(Nc3ncnc4[nH]ccc34)cc2)cc1` [Compound 10, N-[4-(4-methylphenoxy)phenyl]-7H-pyrrolo[2,3-d]pyrimidin-4-amine], for which the IC50 in experiment [1] is 1.02 ± 0.33 µM; in experiment [2], 8.79 ± 2 µM. The like results for `Cc1cccc(Oc2ccc(Nc3ncnc4[nH]ccc34)cc2)c1` [Compound 11, N-[4-(3-methylphenoxy)phenyl]-7H-pyrrolo[2,3-d]pyrimidin-4-amine] were, in that order, 2.2 ± 0.5 µM and 6.4 ± 0.5 µM.

As for `Clc1cccc(Oc2ccc(Nc3ncnc4[nH]ccc34)cc2)c1` [Compound 12, N-[4-(3-chlorophenoxy)phenyl]-7H-pyrrolo[2,3-d]pyrimidin-4-amine], in experiment [1], the IC50 is 1.55 ± 1.84 µM. Regarding `FC(F)(F)c1cccc(Oc2ccc(Nc3ncnc4[nH]ccc34)cc2)c1` [Compound 13, N-[4-(3-trifluoromethylphenoxy)phenyl]-7H-pyrrolo[2,3-d]pyrimidin-4-amine], the IC50 in experiment [1] was found to be 5.61 ± 2.3 µM. With `Clc1ccccc1Oc1ccc(Nc2ncnc3[nH]ccc23)cc1` [Compound 14, N-[4-(2-chlorophenoxy)phenyl]-7H-pyrrolo[2,3-d]pyrimidin-4-amine], the IC50 in experiment [1] is 0.53 ± 0.02 µM; in experiment [2], 0.49 ± 0.05 µM.

In the case of `COc1ccccc1Oc1ccc(Nc2ncnc3[nH]ccc23)cc1` [Compound 15, N-[4-(2-methoxyphenoxy)phenyl]-7H-pyrrolo[2,3-d]pyrimidin-4-amine], the IC50 in experiment [1] came out at 3.56 ± 1.63 µM; in experiment [2], 9.54 ± 0.09 µM. The like results for `COc1cccc(Oc2ccc(Nc3ncnc4[nH]ccc34)cc2)c1` [Compound 17, N-[4-(3-methoxyphenoxy)phenyl]-7H-pyrrolo[2,3-d]pyrimidin-4-amine] were, in that order, 0.84 ± 0.13 µM and 6.79 ± 0.27 µM. The like results for `Nc1nc(Nc2ccc(Oc3ccc(Cl)cc3)cc2)c2cc[nH]c2n1` [Compound 20, N4-(4-(4-chlorophenoxy)phenyl]-7H-pyrrolo[2,3-d]pyrimidine-2,4-diamine] were, in that order, 0.45 ± 0.04 µM and 2.7 ± 0.29 µM. The like results for `O=[N+]([O-])c1ccc(Sc2ccc(Nc3ncnc4[nH]ccc34)cc2)cc1` [Compound 22, N-[4-((4-nitrophenyl)thio)phenyl]-7H-pyrrolo[2,3-d]pyrimidin-4-amine] were, in that order, 2.72 ± 1.78 µM and 22.7 ± 2.84 µM. In the case of `Nc1ccc(Sc2ccc(Nc3ncnc4[nH]ccc34)cc2)cc1` [Compound 23, N-[4-((4-aminophenyl)thio)phenyl]-7H-pyrrolo[2,3-d]pyrimidin-4-amine], the IC50 in experiment [1] was found to be 0.65 ± 0.05 µM; in experiment [2], 4.94 ± 0.28 µM. The like results for `c1ccc(COc2ccc(Nc3ncnc4[nH]ccc34)cc2)cc1` [Compound 24, N-[4-(benzyloxy)phenyl]-7H-pyrrolo[2,3-d]pyrimidin-4-amine] were, in that order, 0.75 ± 0.04 µM and 1.21 ± 0.15 µM.

Regarding `O=C(c1ccccc1)c1ccc(Nc2ncnc3[nH]ccc23)cc1` [Compound 25, (4-((7H-pyrrolo[2,3-d]pyrimidin-4-yl)amino)phenyl](phenyl)methanone], the IC50 in experiment [1] stood at 1.71 ± 0.87 µM; in experiment [2] it was 11.9 ± 4.17 µM. The like results for `O=C(c1ccc(F)cc1)c1ccc(Nc2ncnc3[nH]ccc23)cc1` [Compound 26, (4-((7H-pyrrolo[2,3-d]pyrimidin-4-yl)amino)phenyl](4-fluorophenyl)methanone] were, in that order, 1.5 ± 0.3 µM and 5.4 ± 0.7 µM.
